What all share (experiment): yeast surface display affinity sorting with deep sequencing, enrichments normalized to ddG of purified proteins
For assay [1], the target named is bovine alpha-chymotrypsin (Bos taurus) (UniProt P00766).
Assay [2] has as its target bovine trypsin (Bos taurus) (UniProt P00760).
Assay [3] deals with human mesotrypsin (Homo sapiens) (UniProt P35030).

In the case of A16C (from UniProt P00974), the ddG in assay [1] was found to be 3.29 kcal/mol; in assay [2], 9.65 kcal/mol; in assay [3], 1.39 kcal/mol.
The corresponding values for A16D (from UniProt P00974) are 3.87 kcal/mol, 9.13 kcal/mol and 1.13 kcal/mol.
For A16E (from UniProt P00974), the ddG turned out to be 3.45 kcal/mol in assay [1], 8.65 kcal/mol in assay [2] and 1.57 kcal/mol in assay [3].
The corresponding values for A16F (from UniProt P00974) are 3.99 kcal/mol, 10.1 kcal/mol and 1.78 kcal/mol.
Take A16G (from UniProt P00974): the ddG was found to be 1.51 kcal/mol in assay [1], 3.6 kcal/mol in assay [2] and 0.77 kcal/mol in assay [3].
The corresponding values for A16H (from UniProt P00974) are 3.8 kcal/mol, 8.84 kcal/mol and 1.51 kcal/mol.
The corresponding values for A16I (from UniProt P00974) are 3.79 kcal/mol, 5.09 kcal/mol and 1.35 kcal/mol.
The corresponding values for A16K (from UniProt P00974) are 4.54 kcal/mol, 9.83 kcal/mol and 1.39 kcal/mol.
In the case of A16L (from UniProt P00974), the values for the ddG in assay [1], in assay [2] and in assay [3] were 4.8 kcal/mol, 8.02 kcal/mol and 1.85 kcal/mol, respectively.
A16M (from UniProt P00974): the values for the ddG in assay [1], in assay [2] and in assay [3] were 3.66 kcal/mol, 3.96 kcal/mol and 1.93 kcal/mol, respectively.
Regarding A16N (from UniProt P00974), the ddG is 4.1 kcal/mol in assay [1], 8.97 kcal/mol in assay [2] and 1.31 kcal/mol in assay [3].
The corresponding values for A16P (from UniProt P00974) are 4.32 kcal/mol, 9.01 kcal/mol and 1.53 kcal/mol.
For A16Q (from UniProt P00974), the ddG in assay [1] amounted to 3.43 kcal/mol; in assay [2], 6.73 kcal/mol; in assay [3] it was 1.62 kcal/mol.
For the substance A16R (from UniProt P00974), the ddG in assay [1] turned out to be 4.36 kcal/mol; in assay [2], 4.65 kcal/mol; in assay [3] it was 1.94 kcal/mol.
In the case of A16S (from UniProt P00974), the ddG amounted to 3.51 kcal/mol in assay [1], 4.5 kcal/mol in assay [2] and 1.65 kcal/mol in assay [3].
Consider A16T (from UniProt P00974), for which the results for the ddG in assay [1], in assay [2] and in assay [3] were 1.96 kcal/mol, 4.85 kcal/mol and 0.994 kcal/mol, respectively.
The corresponding values for A16V (from UniProt P00974) are 3.65 kcal/mol, 4.63 kcal/mol and 2.14 kcal/mol.
For the substance A16W (from UniProt P00974), the ddG came to 3.77 kcal/mol in assay [1], 8.95 kcal/mol in assay [2] and 1.82 kcal/mol in assay [3].
In the case of A16Y (from UniProt P00974), the values for the ddG in assay [1], in assay [2] and in assay [3] were 3.72 kcal/mol, 8.04 kcal/mol and 0.415 kcal/mol, respectively.
On to G12A (from UniProt P00974), for which the values for the ddG in assay [1], in assay [2] and in assay [3] were 0.928 kcal/mol, 3.36 kcal/mol and 1.2 kcal/mol, respectively.
The corresponding values for G12C (from UniProt P00974) are 3.31 kcal/mol, 6.81 kcal/mol and 1.24 kcal/mol.
For the substance G12D (from UniProt P00974), the ddG was 3.53 kcal/mol in assay [1], 4.71 kcal/mol in assay [2] and 1.24 kcal/mol in assay [3].
The corresponding values for G12E (from UniProt P00974) are 4.36 kcal/mol, 4.87 kcal/mol and 1.92 kcal/mol.
For the substance G12F (from UniProt P00974), the ddG in assay [1] was 3.15 kcal/mol; in assay [2], 2.59 kcal/mol; in assay [3], -0.173 kcal/mol.
The corresponding values for G12H (from UniProt P00974) are 3.25 kcal/mol, 4.53 kcal/mol and 1.78 kcal/mol.
As to G12I (from UniProt P00974), the values for the ddG in assay [1], in assay [2] and in assay [3] were 3.68 kcal/mol, 2.51 kcal/mol and 1.47 kcal/mol, respectively.
In the case of G12K (from UniProt P00974), the ddG in assay [1] amounted to 2.84 kcal/mol; in assay [2] it was 4.95 kcal/mol; in assay [3] it was 2.47 kcal/mol.
The corresponding values for G12L (from UniProt P00974) are 4.33 kcal/mol, 3.65 kcal/mol and 0.11 kcal/mol.
The corresponding values for G12M (from UniProt P00974) are 2.37 kcal/mol, 4.26 kcal/mol and 0.602 kcal/mol.
The corresponding values for G12N (from UniProt P00974) are 0.542 kcal/mol, 4.36 kcal/mol and 1.73 kcal/mol.
Regarding G12P (from UniProt P00974), the ddG came out at 3.66 kcal/mol in assay [1], 3.71 kcal/mol in assay [2] and 0.0908 kcal/mol in assay [3].
As for G12Q (from UniProt P00974), the values for the ddG in assay [1], in assay [2] and in assay [3] were 3.78 kcal/mol, 4.07 kcal/mol and 1.49 kcal/mol, respectively.
The corresponding values for G12R (from UniProt P00974) are 3.87 kcal/mol, 4.32 kcal/mol and 1.5 kcal/mol.
The corresponding values for G12S (from UniProt P00974) are 0.505 kcal/mol, 3.09 kcal/mol and 0.878 kcal/mol.
Consider G12T (from UniProt P00974), for which the ddG in assay [1] is 4.81 kcal/mol; in assay [2] it was 3.86 kcal/mol; in assay [3], 2.39 kcal/mol.
The corresponding values for G12V (from UniProt P00974) are 3.63 kcal/mol, 3.24 kcal/mol and 1.62 kcal/mol.
The corresponding values for G12W (from UniProt P00974) are 4.11 kcal/mol, 2.49 kcal/mol and -0.643 kcal/mol.
On to G12Y (from UniProt P00974), for which the values for the ddG in assay [1], in assay [2] and in assay [3] were 3.98 kcal/mol, 3.77 kcal/mol and -0.172 kcal/mol, respectively.
G36A (from UniProt P00974): the values for the ddG in assay [1], in assay [2] and in assay [3] were 0.627 kcal/mol, 3.14 kcal/mol and 1.87 kcal/mol, respectively.
G36C (from UniProt P00974): the results for the ddG in assay [1], in assay [2] and in assay [3] were 3.42 kcal/mol, 9.1 kcal/mol and 2.21 kcal/mol, respectively.
In the case of G36D (from UniProt P00974), the ddG in assay [1] came out at 4.17 kcal/mol; in assay [2], 4.57 kcal/mol; in assay [3], 1.62 kcal/mol.
The corresponding values for G36E (from UniProt P00974) are 3.18 kcal/mol, 7.66 kcal/mol and 1.58 kcal/mol.
On to G36F (from UniProt P00974), for which the ddG stood at 3.29 kcal/mol in assay [1], 3.3 kcal/mol in assay [2] and 2.19 kcal/mol in assay [3].
The corresponding values for G36H (from UniProt P00974) are 2.95 kcal/mol, 4.26 kcal/mol and 2.42 kcal/mol.
The corresponding values for G36I (from UniProt P00974) are 5.3 kcal/mol, 8.79 kcal/mol and 1.99 kcal/mol.
For G36K (from UniProt P00974), the ddG in assay [1] stood at 3.4 kcal/mol; in assay [2], 4.63 kcal/mol; in assay [3] it was 2.19 kcal/mol.
Turning to G36L (from UniProt P00974), the ddG in assay [1] was 4.56 kcal/mol; in assay [2], 7.69 kcal/mol; in assay [3], 1.9 kcal/mol.
The corresponding values for G36M (from UniProt P00974) are 4.12 kcal/mol, 4.4 kcal/mol and 1.9 kcal/mol.

For the origin of these results see paper PMC8532158.
